Values of other authors, collected in patent publication US8507011B2, “Method for suppressing or preventing fibrous adhesion formation using a multicomponent aqueous oxychlorine composition prepared on-site” (priority 2009, dated 2013).
This is a selection: effects in other tests are not listed, and their absence says nothing.

Test system: adhesion
Conditions: applied intra-abdominally

Tetrachlorodecaoxide
Antiadhesive properties (in words): displays antiadhesive properties
